The assay addresses HDAC2 (Homo sapiens (Human), UniProt Q92769). Kind of assay: HDAC inhibition assay. In kind it is biochemical. The text has this:
All histone deacetylases were purchased from BPS Bioscience. […] All the other reagents were purchased from Sigma-Aldrich.

By UniProt entry, the sequences of proteins in these tests, tags left out.
UniProt Q92769, whole entry: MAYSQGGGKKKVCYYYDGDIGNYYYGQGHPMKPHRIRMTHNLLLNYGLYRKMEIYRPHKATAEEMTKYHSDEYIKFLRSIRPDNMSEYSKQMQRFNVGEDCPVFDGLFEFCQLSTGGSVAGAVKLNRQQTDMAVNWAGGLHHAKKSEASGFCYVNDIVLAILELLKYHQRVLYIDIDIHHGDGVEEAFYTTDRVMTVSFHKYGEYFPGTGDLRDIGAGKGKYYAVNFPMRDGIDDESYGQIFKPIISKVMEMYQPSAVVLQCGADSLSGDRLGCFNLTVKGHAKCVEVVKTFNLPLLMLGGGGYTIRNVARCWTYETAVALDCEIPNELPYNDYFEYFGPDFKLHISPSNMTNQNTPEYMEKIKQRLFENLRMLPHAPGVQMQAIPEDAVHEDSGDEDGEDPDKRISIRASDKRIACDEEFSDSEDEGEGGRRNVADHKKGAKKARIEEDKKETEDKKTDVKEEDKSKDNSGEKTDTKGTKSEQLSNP

Here are results for one compound from patent US10188756B2, “Imaging histone deacetylases with a radiotracer using positron emission tomography” (THE GENERAL HOSPITAL CORPORATION, priority 2013, dated 2019).

A word on the IC50: it is the concentration that gives 50% inhibition. With `CN(Cc1ccc(/C=C/C(=O)NO)cc1F)CC12CC3CC(CC(C3)C1)C2` [CN149], the midpoint of inhibition, the IC50, lay at 7 nM.
